A selection: hits, their analogues and other compounds. The true share with any hit is near 2.8%.
PGC1a acetyl inh: modulators of PGC1a acetylation. U2OS PGC1a acetylation, AlphaScreen anti-acetyl-lysine; with virally co-expressed GCN5 acetyltransferase. inhibition, % at 15.6 µM. actives 0.17% (n = 350,000);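 active = every replicate shows inhibition of at least 40%; inconclusive = mean inhibition at least 40% but some replicate below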
esBAF inh: inhibitors of esBAF chromatin remodeling in mouse ES cells; Bmi1-luciferase knock-in reporter, 24 h; 100% = twice the neutral-well signal; AID 602393; reporter increase, % at 12.5 µM; actives 2% (n = 350,000); in the data active = activation above about 40%; inconclusive = no clear call, values can overlap the other calls;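 note: a rise in the Bmi1 reporter signal indicates esBAF inhibition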
E-sel inducer: induces E-selectin expression in human endothelial cells. P16581. HUVEC E-selectin immunofluorescence imaging; normalized: neutral wells 0, TNF-alpha wells 100. activation, % at 7.58 µM. actives 0.37% (n = 260,000). AID 686992;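 active = mean E-selectin-positive cell signal at least 10% of the positive control, reached in at least 60% of replicates, without over 20% cell loss; inconclusive = no rule given, readout overlaps actives, possibly toxicity-flagged; inactive = the rest, including those meeting only one limit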
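Test system – human umbilical vein endothelial cells (HUVEC), E-selectin induction · Input – 3,000 HUVEC seeded per well · Buffer or medium – EGM-2, gelatin · Compound dosing – single-point compound dose · Detection – immunofluorescence imaging · Measure – percent E-selectin-positive cells · Controls – TNF-alpha high, DMSO low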
C2C12 statin: protects C2C12 myotubes from simvastatin toxicity; ATP luminescence, 48 h; scaled: DMSO 0, geranylgeraniol control 100; rescue of ATP level, % at 7.49 µM; actives 0.78% (n = 330,000); AID 602340;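 active = mean ATP rescue above about 67%, or every replicate alone reaching that limit, limit read from the data, passing the limit was not always enough; inconclusive = no clear call, values can overlap the other calls; inactive = mean under the limit and some replicate under it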;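 note: myotubes were challenged with 10 µM simvastatin during compound exposure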
Yeast UUG start: modulators of yeast start codon fidelity, primary screen, whole organism, S. cerevisiae, single point, plate reader; S. cerevisiae UUG-firefly luciferase reporter, luminescence/redox ratio; activity score, % at 18.7 µM; actives 0.13% (n = 350,000); AID 602363, 2012;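 active = replicate mean at a twofold rise or more, about +100% in these data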;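 also: firefly luciferase made from a UUG start codon reports start codon fidelity; reporter light over untreated wells divided by growth signal over untreated wells; some hits fall short of that in this replicate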
PglD DTNB: blocks C. jejuni PglD acetyltransferase activity | purified PglD enzyme, DTNB colorimetric CoA detection | inhibition, % at 12.5 µM | actives 0.098% (n = 360,000) | AID 602405; in the data active = inhibition above about 16%, passing the limit was not always enough; inconclusive = no clear call, values can overlap the other calls
Hits are given with their value; - = inactive; ? = inconclusive; . = not tested or not shown.

SMILES	PGC1a acetyl inh	esBAF inh	E-sel inducer	C2C12 statin	Yeast UUG start	PglD DTNB
C[C@H](CO)N1C[C@H](C)[C@@H](CN(C)S(=O)(=O)c2ccccc2)Oc2cc(Br)ccc2S1(=O)=O	-	-	-	-	-	-
Cc1cc(C)nc(Nc2n[nH]c(-c3ccc(C(C)(C)C)cc3)n2)n1	-	54.5	.	-	-	-
Cc1cc(C)nc(Nc2n[nH]c(-c3ccc(N)cc3)n2)n1	-	-	-	-	-	-
Cc1cc(C)nc(Nc2n[nH]c(-c3ccccc3Br)n2)n1	-	43.9	.	-	-	-
Sc1oc(-c2ccccc2)cc1C=Nc1ccccc1	-	85.4	.	-	-	-
COc1ccc2c3c(n(C)c2c1)[C@@H](CO)N(C(C)=O)CC31CN(Cc2ccccc2OC)C1	-	.	-	.	.	.
O=C1/C(=C/c2cccnc2)Sc2ccccc21	-	-	.	93.0	-	-
O=C1c2ccccc2C(=Cc2cccnc2)c2ccccc21	-	-	-	-	-	-
Cc1ccc(/C=C2\Sc3ccccc3C2=O)s1	-	-	.	87.3	-	-
COc1ccccc1CNC(=O)C[C@@H]1CC[C@@H]2[C@H](COC[C@@H](O)CN2C(=O)Nc2ccccc2)O1	-	-	-	-	.	-
CCOc1cc(/C=N\Nc2ccc([N+](=O)[O-])cc2)ccc1OCC(=O)Nc1ccc(C)c(C)c1	-	-	.	102.6	-	-
COc1cc(/C=N\Nc2ccc([N+](=O)[O-])cc2)ccc1OCC(=O)Nc1ccc(C)c(C)c1	.	-	.	-	-	-
C[C@@H]1CN([C@@H](C)CO)C(=O)Cc2cc(NC(=O)Cn3cnnn3)ccc2O[C@H]1CN(C)Cc1ccc(Oc2ccccc2)cc1	-	-	282.9	?	-	-
C[C@@H]1CN([C@H](C)CO)C(=O)c2cc(NC(=O)Cn3cnnn3)ccc2O[C@@H]1CN(C)Cc1ccc(C(=O)Nc2ccccc2N)cc1	-	-	-	105.2	-	-
C[C@H]1CN([C@@H](C)CO)C(=O)c2cc(NC(=O)Cn3cnnn3)ccc2O[C@@H]1CN(C)Cc1ccc(Oc2ccccc2)cc1	-	-	47.9	-	-	-
C[C@@H]1CN([C@@H](C)CO)C(=O)c2cc(NC(=O)Cn3cnnn3)ccc2O[C@@H]1CN(C)Cc1ccc(C(=O)Nc2ccccc2N)cc1	-	-	-	-	-	-
C[C@H]1CN([C@@H](C)CO)C(=O)c2cc(NC(=O)Cn3cnnn3)ccc2O[C@H]1CN(C)Cc1ccc(Oc2ccccc2)cc1	-	-	139.0	-	-	-
C[C@H]1CN([C@@H](C)CO)C(=O)Cc2cc(NC(=O)Cn3cnnn3)ccc2O[C@@H]1CN(C)Cc1ccc(Oc2ccccc2)cc1	-	-	-	-	-	-
C[C@@H]1CCCCO[C@@H](CN(C)C)[C@@H](C)CN([C@H](C)CO)C(=O)c2cc(NC(=O)C3CCCCC3)ccc2O1	-	-	-	-	-	-
C[C@H](CO)N1C[C@H](C)[C@@H](CN(C)S(=O)(=O)c2ccccc2)Oc2ccc(NC(=O)Cn3cnnn3)cc2C1=O	-	-	-	-	-	-
C[C@H]1CN([C@@H](C)CO)C(=O)c2cc(NC(=O)Cn3cnnn3)ccc2O[C@@H]1CN(C)Cc1ccc2c(c1)OCO2	-	-	38.3	-	-	-
C[C@@H]1CN([C@H](C)CO)C(=O)c2cc(NC(=O)Cn3cnnn3)ccc2O[C@H]1CN(C)S(=O)(=O)c1ccccc1	-	-	38.8	-	.	.
COc1ccc(S(=O)(=O)Nc2ccc3c(c2)C(=O)N([C@H](C)CO)C[C@@H](C)[C@H](CN(C)C(=O)Cc2ccccc2)OCCCC[C@@H](C)O3)cc1	-	-	-	.	-	-
CCOCc1cc(C2NC(=O)NC(C)=C2C(=O)OCC)ccc1OC (configuration not stated)	-	-	.	-	-	-
CCOC(=O)C1=C(C)NC(=O)NC1c1ccc(OC)c(CN2CCOCC2)c1 (configuration not stated)	-	-	.	78.6	-	.
SMILES	PGC1a acetyl inh	esBAF inh	E-sel inducer	C2C12 statin	Yeast UUG start	PglD DTNB
COc1ccc(CN2C[C@@H](CO)O[C@@H](n3cnc4c(NCc5ccc(F)cc5)ncnc43)C2)cc1	-	-	-	81.3	-	-
OC[C@@H]1CN(Cc2ccccc2)C[C@H](n2cnc3c(NCc4ccco4)ncnc32)O1	101.1	-	-	-	-	-
COc1cc(CNc2ncnc3c2ncn3[C@H]2CN(Cc3ccc(-c4ccccc4)cc3)C[C@@H](CO)O2)cc(OC)c1OC	.	-	-	-	-	-
COc1cc(CNc2ncnc3c2ncn3[C@H]2CN(Cc3cccc4ccccc34)C[C@@H](CO)O2)cc(OC)c1OC	-	-	-	165.9	-	-
COc1ccccc1C#Cc1ccc2c(c1)O[C@@H](CN(C)C(C)=O)[C@H](C)CN([C@@H](C)CO)S2(=O)=O	-	-	-	-	-	-
COc1ccc(NC(=O)N(C)C[C@H]2OCCCC[C@@H](C)Oc3ccc(NS(=O)(=O)c4ccccc4)cc3C(=O)N([C@H](C)CO)C[C@@H]2C)cc1	-	-	-	.	-	-
C[C@@H]1CN([C@H](C)CO)C(=O)c2cc(NS(=O)(=O)c3cccs3)ccc2O[C@H]1CN(C)S(C)(=O)=O	-	-	33.3	-	-	-
C[C@H]1CN([C@@H](C)CO)C(=O)c2cc(NS(=O)(=O)c3cccs3)ccc2O[C@H]1CN(C)S(C)(=O)=O	-	-	448.9	-	-	-
COc1ccc(-c2nc(N)nc(C)c2-c2ccc(Cl)cc2)c(O)c1	-	-	59.3	-	-	-
CCCNC(=O)N1[C@H](CO)[C@@H](c2ccccc2)C12CN(C(=O)CC1CC1)C2	-	.	-	.	.	.
CCC(=O)N1CC2(C1)[C@@H](c1ccccc1)[C@@H](CO)N2C(=O)c1ccccc1	-	.	-	.	.	.
NC(N)=NC(=S)Nc1ccc(Cl)cc1	.	46.7	-	-	-	-
N#C/C(=N\Nc1ccc(Cl)cc1)C(N)=S	-	-	72.1	-	-	-
NC(=S)Nc1ccc2c(c1)OCO2	-	.	-	.	.	.
N#Cc1ccc(NC(=S)/N=C(\N)c2ccccc2)cc1	-	?	-	-	-	-
CN(C)C(=S)Nc1ccc(Cl)cc1	-	-	-	-	-	-
N/C(=N\C(=S)Nc1ccccc1)c1ccccc1	-	82.3	-	-	-	-
N/C(=N\C(=S)Nc1ccc2c(c1)OCO2)c1ccccc1	-	64.2	-	-	-	-
NCC[C@H]1CC[C@@H](NS(=O)(=O)Cc2ccccc2)[C@@H](CO)O1	-	-	-	-	-	-
CCc1c(O)nc(SC2CC(=O)N(c3ccccc3)C2=O)[nH]c1=O (configuration not stated)	-	-	.	105.6	-	-
Cc1c(O)nc(SC2CC(=O)N(c3ccccc3)C2=O)[nH]c1=O (configuration not stated)	.	.	.	.	-	-

Bioassay records from PubChem BioAssay.
